## Measured affinities in a library of Ab-14 heavy chain variants

From the AlphaSeq antibody data of Li et al. 2023 (doi:10.1038/s41467-023-39022-2), copy in the FLAb collection.

The target is the same throughout: PDVDLGDISGINAS, from the HR2 region of SARS-CoV-2 spike.

Parent scFv Ab-14: VH joined to VL by the linker GGGGSGGGGSGGGGS. Changes lie in the heavy chain CDRs alone.
VH: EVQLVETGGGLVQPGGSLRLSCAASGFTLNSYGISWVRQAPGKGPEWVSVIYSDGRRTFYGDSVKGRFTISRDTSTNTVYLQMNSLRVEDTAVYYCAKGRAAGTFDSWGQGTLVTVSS
VL: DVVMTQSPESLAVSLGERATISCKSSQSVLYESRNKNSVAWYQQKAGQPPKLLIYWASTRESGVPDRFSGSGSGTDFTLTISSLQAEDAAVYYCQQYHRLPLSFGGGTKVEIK

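The starting antibody came from a phage panning campaign against this peptide. The variants were designed computationally from a first round of random CDR variants and then made and measured. Their group label is 14H_En_HC (En: ensemble of fine-tuned language models; HC: hill climbing; a sequence that several methods proposed may carry one label only). The assay is AlphaSeq: two haploid yeast populations carry antibody and antigen on their surface. Mating (16 h, 30 °C) was followed by selection of diploids and sequencing of their barcodes. Read counts were normalised to the haploid input and turned into Kd by a linear fit to BCL2-family pairs of known affinity, for each replicate. The assay was run in six technical replicates.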

Each variant is given by its three heavy chain CDRs, as the data file delimits them; those of the parent are GFTLNSYGIS, VIYSDGRRTFYGDSVK, GRAAGTFDS.
Scale: log10 of Kd in nM, estimated from mating counts; low values are strong binders.
A mean of the replicates is given; it leaves out those without a signal.
"nd" means that the variant was in the library but no mating with the target was seen in that replicate; the authors take this as a sign of poor binding, and no number exists.
The parent sequence was in this pool as ten entries: three were never detected, three once, and four in most replicates, with averages from 0.34 to 2.37.
A sequence measured in both rounds can read differently, since the two assays cover different ranges.
As a blank, each scFv also met three strains without target: over all heavy chain designs, 1% of these pairings were detected, typically at 2.08 and seldom below 0.84. For each scFv, signals with the empty controls are counted beside the result, with their mean in brackets.
In the paper, a design with two or fewer of six values counts as a poor binder.

| CDR-H1 | CDR-H2 | CDR-H3 | replicates, log10 nM | log10 Kd (nM), mean | signal with controls |
|---|---|---|---|---|---|
| GFDLNEYGIS | VIYADGRRTSYTDSVK | GEAAGTFNV | -0.24 -0.67 -0.78 -0.66 -0.64 0.47 | -0.42 | 0/18 |
| GFDLNEYGIS | VIYADGRRTAYVDSVK | GNQAGTFDQ | 0.08 -0.09 0.01 -0.35 -0.17 -0.09 | -0.10 | 1/18 (2.78) |
| GFDLNEYGIS | VIYADGRRTFYTDSVK | GEQAGIFDV | 0.02 -0.14 0.14 -0.18 0.02 0.02 | -0.02 | 4/18 (2.50) |
| GFSLDEYGIS | VIYADGMRTFYADSVK | GNVAGTFDS | 0.16 -0.01 0.11 0.04 -0.12 0.04 | 0.04 | 0/18 |
| GFDLDEYGIS | VIYADGRRTFYADSVK | GEEAGTFDV | -0.20 -0.26 -0.34 -0.45 -0.37 -0.29 | -0.32 | 1/18 (2.19) |
| GFDLNEYGIS | VIYADGRRTAYSDSVK | GGNAGTFDL | -1.05 -0.63 -1.01 -0.50 -1.04 -0.30 | -0.75 | 0/18 |
| GFDLNEYGIS | VIYADGMRSFYADSVK | GQLAGTFDS | -0.74 -1.00 -1.18 -1.39 -0.96 -0.41 | -0.95 | 0/18 |
| GFDLEDYGIS | VIYADGRRTAYIDSVK | GEAAGTFDK | -0.18 -0.58 -0.22 -0.63 -0.26 -0.33 | -0.37 | 0/18 |
| GFDLNEYGIS | VIYADGRRTFYADSVK | GNMAGTFNV | -0.32 -0.51 -1.17 -1.01 -0.76 -0.98 | -0.79 | 0/18 |
| GFDLNEYGIS | VIYADGVRTFYVDSVK | GETAGTFDM | 0.20 0.01 0.38 -0.19 -0.22 -0.22 | -0.01 | 0/18 |
| GFDLEDYGIS | VIYADGRRTAYIDSVK | GEAAGTFDA | -0.61 -0.72 -0.03 -0.59 -0.56 -0.52 | -0.51 | 0/18 |
| GFDLEDYGIS | VIYADGRRTFYSDSVK | GEIAGTFDF | -0.17 -0.31 -0.60 -0.28 -0.58 -0.23 | -0.36 | 1/18 (4.00) |
| GFSLDEYGIS | VIYADGRRTFYADSVK | GNSAGTFDK | -0.06 0.21 -0.03 0.16 -0.14 0.29 | 0.08 | 0/18 |
| GFDLNEYGIS | VIYADGRRTFYTDSVK | GAMAGTFDQ | 0.39 0.38 0.23 0.05 0.31 0.14 | 0.25 | 0/18 |
| GFDLNEYGIS | VIYADGRRTFYTDSVK | GEVAGTFDQ | -0.22 -0.44 0.01 -0.20 -0.48 -0.17 | -0.25 | 0/18 |
| GFNLNEYGIS | VIYADGRRTFYSDSVK | GEAGGTFDV | nd nd 0.63 0.44 -0.64 nd | 0.14 | 0/18 |
| GFDINEYGIS | VIYADGRRTFYTDSVK | GGNAGTFDA | 0.30 -0.27 -0.61 -0.23 -0.11 -0.32 | -0.21 | 0/18 |
| GFDLNEYGIS | VIYADGRRTFYADKVK | GENAGTFDV | -0.27 -0.13 -0.02 -0.29 -0.06 0.07 | -0.11 | 0/18 |
| GFDLNEYGIS | VIYADGVRTFYADSVK | GNNAGTFDS | 1.30 0.99 0.77 0.65 0.58 1.00 | 0.88 | 0/18 |
| GFNLDEYGIS | VIYADGRRTFYQDSVK | GEVAGTFDE | -0.43 0.15 0.10 -0.63 -0.39 -0.20 | -0.23 | 0/18 |
| GFNLNEYGIS | VIYADGMRTFYTDSVK | GENAGTFDV | 0.40 -0.11 -0.11 -0.34 -0.16 -0.01 | -0.05 | 0/18 |
| GFDLNEYGIS | VIYADGRRTAYTDSVK | GEAAGTFDK | nd -1.66 nd -1.45 nd nd | -1.56 | 0/18 |
| GFDLNEYGIS | VIYADGRRTFYSDSVK | GTVGGTFDI | 0.54 0.85 0.56 1.71 0.62 1.00 | 0.88 | 0/18 |
| GFDLNEYGIS | VIYADGLRTFYTDSVK | GEFAGTFDA | 0.48 0.13 0.32 0.64 0.21 0.57 | 0.39 | 1/18 (3.16) |
| GFDLNEYGIS | VIYADGVRTFYADSVK | GNVAGTFDS | nd nd nd nd nd nd | nd | 0/18 |
| GFDLNEYGIS | VIYADGRRTFYTDSVK | GQNAGTFDV | -0.68 -0.71 -0.89 -0.80 -0.65 -0.65 | -0.73 | 0/18 |
| GFDIDEYGIS | VIYADGRRTFYADSVK | GTNAGTFDQ | 1.35 nd nd nd nd nd | 1.35 | 0/18 |
| GFDLNEYGIS | VIYADGRRTYYADSVK | GQNAGTFDQ | -0.37 -0.64 -0.73 -0.75 -0.13 -0.42 | -0.51 | 0/18 |
| GFDLNEYGIS | VIYADGRRTAYTDSVK | GEVAGTFDA | -0.31 -0.64 0.13 0.70 -0.63 0.70 | -0.01 | 0/18 |
| GFDLNEYGIS | VIYADGRRTFYSDSVK | GEVGGTFDV | -0.05 -0.05 -0.23 -0.02 -0.03 -0.04 | -0.07 | 0/18 |
| GFDLNEYGIS | VIYADGRRTFYADSVK | GNQAGTFIV | 1.22 0.96 0.88 1.06 1.41 1.27 | 1.13 | 1/18 (1.86) |
| GFDLDEYGIS | VIYADGMRTFYTDSVK | GEQAGTFDA | 1.66 2.54 3.00 2.12 nd 2.23 | 2.31 | 0/18 |
| GFNLNEYGIS | VIYADGRRTAYADSVK | GEHAGTFDI | -1.12 -1.16 -1.45 -1.01 -1.45 -0.49 | -1.12 | 0/18 |
| GFNLNEYGIS | VIYADGMRTFYTDSVK | GETAGTFDI | -0.63 -0.53 -0.34 0.24 -0.53 -0.38 | -0.36 | 1/18 (1.29) |
| GFDLNEYGIS | VIYADGRRTFYTDSVK | GQVAGTFDS | 0.32 -0.38 -0.01 -0.27 -0.59 -0.23 | -0.19 | 0/18 |
| GFDLNEYGIS | VIYADGLRTSYADSVK | GQNAGTFDQ | -0.87 -0.51 -0.74 -0.70 -0.82 -0.82 | -0.74 | 0/18 |
| GFDLNEYGIS | VIYADGKRTYYADSVK | GQVAGTFDQ | 0.02 -0.16 0.01 -0.45 -0.52 -0.06 | -0.19 | 0/18 |
| GFDLNEYGIS | VIYADGRRTAYIDSVK | GHTAGTFDV | -0.08 -0.20 -0.28 -0.82 -0.68 -0.25 | -0.39 | 0/18 |
| GFDLDEYGIS | VIYADGRRTAYADSVK | GSNAGTFDL | -0.22 -0.13 -0.52 -0.31 -0.43 -0.36 | -0.33 | 1/18 (2.72) |

Extract of 4 entries:

CDR-H1,CDR-H2,CDR-H3,"replicates, log10 nM","log10 Kd (nM), mean",signal with controls
GFDLEDYGIS,VIYADGRRTAYIDSVK,GEAAGTFDA,-0.61 -0.72 -0.03 -0.59 -0.56 -0.52,-0.51,0/18
GFDLDEYGIS,VIYADGRRTAYADSVK,GSNAGTFDL,-0.22 -0.13 -0.52 -0.31 -0.43 -0.36,-0.33,1/18 (2.72)
GFDLNEYGIS,VIYADGKRTYYADSVK,GQVAGTFDQ,0.02 -0.16 0.01 -0.45 -0.52 -0.06,-0.19,0/18
GFDLNEYGIS,VIYADGVRTFYADSVK,GNNAGTFDS,1.30 0.99 0.77 0.65 0.58 1.00,0.88,0/18